PMC11157767 (Molecular Cancer, 2024)

System: TFG-MET allograft tumors
Experiment: TFG-MET allograft preclinical trial in CD1 mice, Survival cohort (survival, BLI, body weight)
Format: in vivo, mouse
Conditions: Murine allografts; day 77; drug + RT

C[C@@H](Oc1cc(-c2cnn(C3CCNCC3)c2)cnc1N)c1c(Cl)ccc(F)c1Cl [Crizotinib]
BLI signal, individual mice: 1.16E+05
